According to patent US20150342961A1, “USE OF PROSTAGLANDIN E1 (PGE1) AND MISOPROSTOL FOR TREATING CHRONIC MYELOGENOUS/MYELOID LEUKEMIA (CML)” (priority 2014, published 2015):

System: HSCs
Experiment: Toxicity of screened drugs to HSCs

Trichostatin A
toxicity to HSCs: toxic to HSCs
